IC50 data for 1 substance are collected here from paper PMC3479967, “Drug-Drug Interactions Potential of Icariin and Its Intestinal Metabolites via Inhibition of Intestinal UDP-Glucuronosyltransferases” (Evidence-based Complementary and Alternative Medicine : eCAM, 2012).

This assay has as its target T1, UGT1A9 (Homo sapiens, UniProt O60656).
T1 sequence (O60656 26-530): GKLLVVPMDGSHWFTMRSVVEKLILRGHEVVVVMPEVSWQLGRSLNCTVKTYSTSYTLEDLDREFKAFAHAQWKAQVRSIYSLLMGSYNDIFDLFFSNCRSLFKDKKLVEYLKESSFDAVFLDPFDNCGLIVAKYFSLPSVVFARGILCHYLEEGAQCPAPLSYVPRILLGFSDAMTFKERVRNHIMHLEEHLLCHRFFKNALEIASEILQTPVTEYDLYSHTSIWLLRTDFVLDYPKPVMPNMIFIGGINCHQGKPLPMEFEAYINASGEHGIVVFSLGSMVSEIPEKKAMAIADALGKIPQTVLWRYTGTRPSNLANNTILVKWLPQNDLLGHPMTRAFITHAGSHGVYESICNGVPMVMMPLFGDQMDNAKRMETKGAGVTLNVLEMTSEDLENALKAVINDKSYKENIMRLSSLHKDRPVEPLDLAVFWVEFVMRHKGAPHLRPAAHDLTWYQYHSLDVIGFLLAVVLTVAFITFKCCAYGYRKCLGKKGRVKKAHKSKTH
The experiment in a line: Inhibition of recombinant UGT1A9 activity (4-MU glucuronidation). To be noted: read-out: IC50 for inhibition of UGT1A9 activity; recombinant human UGT1A9, 30 μM 4-MU, mean ± SD. How it is done:
A panel of recombinant human UGT supersomes (UGT1A1, UGT1A3, UGT1A4, UGT1A6, UGT1A7, UGT1A8, UGT1A9, UGT1A10, UGT2B4, UGT2B7, UGT2B15, and UGT2B17) expressed in baculovirus-infected insect cells were purchased from BD Gentest Corp. (Woburn, MA, USA).
4-MU, a nonselective substrate of UGTs, was used as probe substrate for all UGTs except UGT1A4. Incubations with each individual enzyme were conducted using conditions previously described. There was a 5 min preincubation step at 37°C before the reaction was started by addition of UDPGA. The incubation mixtures were then centrifuged at 20,500 ×g for 15 min to obtain the supernatant. Aliquots (20 μL) were then analyzed by HPLC. The HPLC system (SHIMADZU, Kyoto, Japan) consisted of an SCL-10A system controller, two LC-10AT pumps, a SIL-10A auto injector, and a SPD-10AVP UV detector. Chromatographic separation was achieved using a Kromasil ODS column (4.6 × 150 mm I.D., 5 μm particle size) at a flow rate of 1 mL/min and UV detection at 316 nm. The mobile phase consisted of 10 mM KH2PO4, pH 2.7 (A) and acetonitrile (B). […]
Inhibition data from experiments were graphically represented by Dixon plots. K i values were calculated by nonlinear regression using the equations for competitive inhibition (1), noncompetitive inhibition (2), or mixed inhibition (3), [22] […]

For Icariside II, the IC50 came out at 2400 ± 100 nM.
